# Measurements: PubChem BioAssay AID493030 (The Scripps Research Institute Molecular Screening Center, 2011)
# The list shows a part of the results, in another mix than the full data. Calls of active or inactive are those of the source.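 The calls were made as follows: active = mean inhibition over three repeats above a set limit taken from the earlier primary screen (cut at about 30% in these data); inactive = the rest.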
# Target: Platelet-activating factor acetylhydrolase 2, cytoplasmic (Homo sapiens) (UniProt Q99487)
# Assay: inhibition of cytoplasmic PAF acetylhydrolase 2 – biochemical, fluorescence polarization, human, confirmation (AID 493030);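 also: inhibitor blocks binding of rhodamine activity probe so polarization falls; 0% = enzyme with DMSO and 100% = wells lacking PAFAH2 protein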
# Settings: recombinant PAFAH2, FP-rhodamine activity probe, at 3.39 µM, active compounds read high
row,Compound,inhibition
1,O=[N+]([O-])c1ccc(O)c(/C=N/Nc2ccc([N+](=O)[O-])cc2[N+](=O)[O-])c1,active: 39%
